# Measured affinities in a library of Ab-14 heavy chain variants

Source: Engelhart et al. 2022 (doi:10.1038/s41597-022-01779-4), MIT Lincoln Laboratory and A-Alpha Bio; data file from the FLAb repository.

Antigen: PDVDLGDISGINAS, a 14-residue peptide of the SARS-CoV-2 spike HR2 region.

Parent scFv Ab-14: VH joined to VL by three GGGGS repeats. Changes lie in the heavy chain CDRs alone.
VH: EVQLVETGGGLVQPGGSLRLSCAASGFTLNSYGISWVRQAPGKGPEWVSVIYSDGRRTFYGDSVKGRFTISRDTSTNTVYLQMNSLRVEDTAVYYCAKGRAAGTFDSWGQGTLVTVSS
VL: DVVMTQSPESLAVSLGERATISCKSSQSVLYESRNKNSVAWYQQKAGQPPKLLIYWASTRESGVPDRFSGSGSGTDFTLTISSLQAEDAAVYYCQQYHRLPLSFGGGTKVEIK

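The parent was found by panning a naive human phage display library on the peptide. Variants in AAYL49 differ from the parent at up to three CDR positions; double and triple changes were sampled at random. The assay is AlphaSeq: two haploid yeast populations carry antibody and antigen on their surface. Pairs that bind mate more often; barcode pairs of the diploids are counted by sequencing. Each replicate has its own calibration line, from reference interactions of the BCL2 family. Mating was done three times.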

Each variant is given by its three heavy chain CDRs, as the data file delimits them; those of the parent are GFTLNSYGIS, VIYSDGRRTFYGDSVK, GRAAGTFDS.
Scale: log10 of Kd in nM, estimated from mating counts; low values are strong binders.
The mean shown is taken over the replicates in which the pair was detected.
An entry "nd" has no value in the source: the pair was not observed among the diploids in any replicate. This suggests poor binding but is not conclusive.
Three control strains display no target. For library AAYL49, 15% of the pairings with them gave a signal, with a median of 4.06 and one signal in twenty below 2.83, so weak values seen in few replicates may be background. Also given: how often the same scFv was detected with the empty control strains.

CDR-H1,CDR-H2,CDR-H3,"mean, log10 nM",replicates with signal,empty controls
GITLASYGIS,VIYSDVRRTFYGDSVK,GRAAGTFDS,4.12,1/3,4/9
GFTTNSNGIS,VIYSDGRRTFYGDSEK,GRAAGTFDS,3.45,2/3,3/9
GFTLNSYGIS,VIFSDGTRTFYGDSVK,GRLAGTFDS,1.53,3/3,4/9
GFTLNSYGIS,VIYSDYRRGFYGDSVK,GRTAGTFDS,nd,0/3,0/9
GFTLNSYGIS,VIYSDGRGVFYGDKVK,GRAAGTFDS,nd,0/3,1/9
GFTLNTYGIS,VIYTDGRRTFYGDWVK,GRAAGTFDS,4.03,1/3,4/9
GFTNNSTGIS,VIYCDGRRTFYGDSVK,GRAAGTFDS,nd,0/3,1/9
GFTLNSYGIS,VIYSDGRRTFYHDSVK,GTANGTFDS,nd,0/3,0/9
GFTLNSYGIS,VIYTDGRRTFYQDSVK,ARAAGTFDS,nd,0/3,0/9
GFTLNSYGIS,VIYSVGRRTFYGDSVK,GRAAGCFDS,3.70,1/3,5/9
GVTLNSYGIV,QIYSDGRRTFYGDSVK,GRAAGTFDS,3.56,2/3,4/9
GFCLNSYGIS,VIYSDGRRTFYGDSVI,GRAANTFDS,2.44,1/3,0/9
GFTLNSYGKS,VIYSDGRRTKYGDSVK,ARAAGTFDS,nd,0/3,0/9
GFTLNSYGIS,VIYSDGRRTFYGDSNK,GRAAGTFDW,nd,0/3,0/9
GFSLNSYGIS,CIYSDGRRTFTGDSVK,GRAAGTFDS,nd,0/3,1/9
GFTLNSYGIS,VIYSDGRRYDYGDSVK,GRAAGTFQS,3.75,2/3,1/9
GFALNSYGIS,VIYSDGMVTFYGDSVK,GRAAGTFDS,3.93,1/3,1/9
GITTNSYGIS,VIYSDGRRTFYGDSVK,VRAAGTFDS,nd,0/3,2/9
GFTLNHYGIS,VIYSDGRRTFYGLSVP,GRAAGTFDS,3.64,1/3,1/9
GFTLNSYGIS,VIYHDGRRTFYGHSVK,GRAAKTFDS,nd,0/3,1/9
TFTLNSYGIS,VIYSDGRRTFYGHSVK,GRARGTFDS,nd,0/3,0/9
GFTLNNYGIS,VIYSDGRRTSYGDCVK,GRAAGTFDS,2.36,3/3,0/9
GFTYNSWGIS,SIYSDGRRTFYGDSVK,GRAAGTFDS,5.07,2/3,1/9
GFTLNSYGIS,VIYSDGRRQFYMDSVK,GRAAGTFDR,1.90,3/3,0/9
GFTLLSYGIS,VIYSDGRRTFYGDSVK,GRHAYTFDS,4.08,1/3,1/9
GFTLPSYGIS,VIYSDGRRTFYGDSVK,GRAAGTLQS,4.64,3/3,4/9
GFTLNSYGIS,AIYSDGRGTFYGDSVK,GRAAGTFDM,nd,0/3,0/9
GFTLNSYGTS,VIYSDGRDTFYGDSVK,GRAPGTFDS,nd,0/3,2/9
GFTLNSYEIS,VIYSDGRRTFYGESVK,GRAKGTFDS,5.45,1/3,5/9
GFTLNSYGIS,VIYSDGRRTFYGDSVK,GRVAGTTDS,nd,0/3,0/9
GFTLNDWGIS,VIYSDGRRTFYGDSDK,GRAAGTFDS,nd,0/3,0/9
GFTLNSYGIS,VIYSDGRRTFYGDSVF,GRAIGTFCS,1.75,3/3,1/9
GFTLNSYGIS,VIYSDGRRTFYGDHVK,GRAAGTFDE,2.01,3/3,1/9
TFTDNSYGIS,VIYSDGRDTFYGDSVK,GRAAGTFDS,4.51,1/3,1/9
GFTLNSYGIS,VIYSDWRRTFYGDSSK,GRAAGTFDS,nd,0/3,0/9
GFTLNSYGIS,VDYSDGRRRFYGDLVK,GRAAGTFDS,nd,0/3,0/9
GFPLNSYGIS,VIYSDGRRTFYLDYVK,GRAAGTFDS,4.34,2/3,4/9
GFTLNSYGIS,VIYSVGRRTFYGASVK,GRAAGTFDS,nd,0/3,0/9
GFTLNSYGIS,VIYSDGRRTEYGDQNK,GRAAGTFDS,3.89,2/3,2/9
GFTLNSYGIS,VIYSDGRRTFYQLSVY,GRAAGTFDS,3.97,1/3,6/9
GFTLNSYKIS,VIYSDGRRTFYGDSVT,GLAAGTFDS,4.79,1/3,0/9
GFRLNSYGIS,VIYSDGRRTFYGDIVT,GRAAGTFDS,3.12,1/3,2/9
GFTLCSYGIS,VIYSDGRRTFYQDSVK,CRAAGTFDS,2.17,3/3,0/9
GFTLCSYGIS,VIWSDGRRTFYGDSVK,GRATGTFDS,nd,0/3,0/9
GFTLNSYGIS,VIYSDGRWIFYGDSVK,GRAAGTMDS,3.26,1/3,0/9
GFTLNSYGIS,VITSDGERTFYGDSVK,GRAACTFDS,nd,0/3,1/9
GFNLNEYGIS,VIYSDGRRTFYGDSVK,GRAAGTFDL,1.49,3/3,2/9
GFTRNSYGIS,VIYSDGRRTFYGDSVK,GRPAGTWDS,4.32,1/3,5/9
GFTVNSYGIS,DIYSDGRRTFYGDSVK,GEAAGTFDS,4.40,3/3,4/9
GFTLNSYGSS,VIYEDGRRTFYGDSVK,GRAAGNFDS,4.90,3/3,9/9

Picked from the list: the 7 lowest averages where every replicate gave a value.

{"CDR-H1": "GFNLNEYGIS", "CDR-H2": "VIYSDGRRTFYGDSVK", "CDR-H3": "GRAAGTFDL", "mean, log10 nM": "1.49", "replicates with signal": "3/3", "empty controls": "2/9"}
{"CDR-H1": "GFTLNSYGIS", "CDR-H2": "VIFSDGTRTFYGDSVK", "CDR-H3": "GRLAGTFDS", "mean, log10 nM": "1.53", "replicates with signal": "3/3", "empty controls": "4/9"}
{"CDR-H1": "GFTLNSYGIS", "CDR-H2": "VIYSDGRRTFYGDSVF", "CDR-H3": "GRAIGTFCS", "mean, log10 nM": "1.75", "replicates with signal": "3/3", "empty controls": "1/9"}
{"CDR-H1": "GFTLNSYGIS", "CDR-H2": "VIYSDGRRQFYMDSVK", "CDR-H3": "GRAAGTFDR", "mean, log10 nM": "1.90", "replicates with signal": "3/3", "empty controls": "0/9"}
{"CDR-H1": "GFTLNSYGIS", "CDR-H2": "VIYSDGRRTFYGDHVK", "CDR-H3": "GRAAGTFDE", "mean, log10 nM": "2.01", "replicates with signal": "3/3", "empty controls": "1/9"}
{"CDR-H1": "GFTLCSYGIS", "CDR-H2": "VIYSDGRRTFYQDSVK", "CDR-H3": "CRAAGTFDS", "mean, log10 nM": "2.17", "replicates with signal": "3/3", "empty controls": "0/9"}
{"CDR-H1": "GFTLNNYGIS", "CDR-H2": "VIYSDGRRTSYGDCVK", "CDR-H3": "GRAAGTFDS", "mean, log10 nM": "2.36", "replicates with signal": "3/3", "empty controls": "0/9"}